From US20030099983A1, “Cyclic and substituted immobilized molecular synthesis” (Affymetrix, Inc., priority 1991, published 2003)

Tested on: monoclonal antibody D32.39
Conditions: relative fluorescence intensity of the corresponding surface-immobilized peptide (N-acetylated, C-terminal amide link to surface)

SMILES: CC(=O)N[C@@H](Cc1ccccc1)C(=O)N[C@@H](CCCCN)C(=O)N[C@H](C(=O)N[C@H](C(=O)N[C@H](C(=O)O)[C@@H](C)O)C(C)C)C(C)C [Ac-FKVVT-OH]
- Normalized Intensity (%): 13%
